High-throughput results: PubChem BioAssay, ICCB-Longwood Screening Facility, Harvard Medical School
Sampled rows, rich in hits. Any-hit rate of the full collection: about 0.43%.
GIV-Gai inh: inhibitors of GIV peptide binding to Galpha-i3, primary screen, biochemical, fluorescence polarization, FITC-GIV GBA peptide, rat Galphai3; hit rate 0.42% among 210,000; percent of control (FP), % (concentration not given with the values); 90 min; stronger effect = lower value; scaled: aluminum fluoride 0%, vehicle 100%; Guanine nucleotide-binding protein G(i) subunit alpha-3 (Rattus norvegicus), P08753;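 active = replicate mean at 85% of control or lower, very high polarization wells dropped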;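 note: wells of about 15 µL received 100 nL stock; the first replicate is given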
HCMV NEC inh: inhibitors of HCMV UL50-UL53 nuclear egress complex interaction; HTRF UL50-UL53 interaction, normalized percent inhibition; inhibition, % (no concentration beside the values); 190,000 tested, 0.15% active; in the data active means inhibition above about 27%, passing the limit was not always enough
GIV-Gai FP conf: GIV-Galpha-i3 inhibition, FP confirmation. FITC-GIV peptide binding to Galphai3, fluorescence polarization; active compounds read low. 580 tested, 38% active. fluorescence polarization, mP at 100 µM. shares compounds with GIV-Gai inh. AID 1259350;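 active means inhibition score of 15 or more, meaning 100 minus mean polarization as percent of control over three replicates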;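 further: lower mP means peptide displaced from Galphai3 so more inhibition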
GIV-Gai AS conf: GIV-Galpha-i3 inhibition, AlphaScreen confirmation; shares compounds with GIV-Gai inh; AlphaScreen Galphai3-GIV binding, purified proteins, 90 min; active compounds read low; AlphaScreen counts at 100 µM; 580 tested, 39% active;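 active means inhibition score at or above a set limit, where the score is 100 minus the three-replicate mean percent of control signal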
* = called active by the depositor.

Amino acid sequences for entries named in this document (tags omitted).
Guanine nucleotide-binding protein G(i) subunit alpha-3 (Rattus norvegicus), P08753, UniProt P08753, whole entry, looked up: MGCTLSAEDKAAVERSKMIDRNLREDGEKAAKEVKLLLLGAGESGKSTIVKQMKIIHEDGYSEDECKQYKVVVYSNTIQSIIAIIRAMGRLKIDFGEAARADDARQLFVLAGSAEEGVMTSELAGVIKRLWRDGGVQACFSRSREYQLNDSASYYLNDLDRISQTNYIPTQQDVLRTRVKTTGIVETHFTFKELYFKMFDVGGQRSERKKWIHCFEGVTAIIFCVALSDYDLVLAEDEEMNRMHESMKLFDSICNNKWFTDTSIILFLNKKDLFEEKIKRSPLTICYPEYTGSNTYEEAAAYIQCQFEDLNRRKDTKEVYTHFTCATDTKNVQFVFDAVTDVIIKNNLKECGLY

Preview, three compounds:
`CCOC(=O)c1cnn(CCOC(=O)C2CCCCC2)c1NC(=O)C1CCCCC1` gave GIV-Gai inh 101 and HCMV NEC inh -4.
COc1cc(C(=O)Nc2cccc(-c3nc4ccccc4[nH]3)c2)ccc1OC(C)=O was read as GIV-Gai inh 106 and HCMV NEC inh 2.
Screening O=C1C(c2ccnc3ccccc23)=C(O)c2ccccc21 returned GIV-Gai inh 64*, HCMV NEC inh -40, GIV-Gai FP conf 76 and GIV-Gai AS conf 34509.

All compounds of this part, from the start:
`CCOC(=O)c1cnn(CCOC(=O)C2CCCCC2)c1NC(=O)C1CCCCC1` gave GIV-Gai inh 101 and HCMV NEC inh -4.
COc1cc(C(=O)Nc2cccc(-c3nc4ccccc4[nH]3)c2)ccc1OC(C)=O was read as GIV-Gai inh 106 and HCMV NEC inh 2.
Screening O=C1C(c2ccnc3ccccc23)=C(O)c2ccccc21 returned GIV-Gai inh 64*, HCMV NEC inh -40, GIV-Gai FP conf 76 and GIV-Gai AS conf 34509.
`O=C1C(=O)c2ccccc2C(O)=C1c1ccccc1F` gave GIV-Gai inh 96 and HCMV NEC inh -109.
CCOC(=O)/C(C#N)=C/c1ccc(-c2ccc(Cl)c(C(=O)OC)c2)o1 was read as GIV-Gai inh 65*, HCMV NEC inh 0, GIV-Gai FP conf 76 and GIV-Gai AS conf 22310.
For CCOC(=O)/C(C#N)=C/c1ccc(-c2ccc(Br)cc2)o1 the results were GIV-Gai inh 105 and HCMV NEC inh 12.
CN(CC(=O)N1CCc2ccccc2C1)c1cc2c(cc1Cl)NC(=O)CO2 was read as HCMV NEC inh -4.
Screening COC(=O)c1ccc(-c2ncc(-c3ccc(N(C)C)cc3)o2)cc1 returned GIV-Gai inh 87, HCMV NEC inh 6, GIV-Gai FP conf 71 and GIV-Gai AS conf 48206.
For COC(=O)c1ccc(-c2nnc(-c3ccc(N(C)C)cc3)o2)cc1 the results were HCMV NEC inh -29.
`O=C(c1cc(C2CC2)on1)N1CCCC1c1ccc(F)cc1` (configuration not stated) gave GIV-Gai inh 107 and HCMV NEC inh 11.
For COc1ccc(C(=O)NC(c2ccc(C)cc2)c2cc(Cl)c3cccnc3c2O)cc1 (configuration not stated) the results were GIV-Gai inh 80*, GIV-Gai FP conf 61* and GIV-Gai AS conf 89449.
Screening COc1ccc(C(=O)NC(c2ccccc2Cl)c2cc(Cl)c3cccnc3c2O)cc1 (configuration not stated) returned GIV-Gai inh 92.
For O=C(O)CCC(C(=O)O)N1C(=O)/C(=C/C=C/c2ccco2)SC1=S (configuration not stated) the results were GIV-Gai inh 39*, HCMV NEC inh 75*, GIV-Gai FP conf 47* and GIV-Gai AS conf 2132*.
Screening CC(C(=O)O)N1C(=O)/C(=C/c2ccco2)SC1=S (configuration not stated) returned GIV-Gai inh 75*, HCMV NEC inh -66, GIV-Gai FP conf 55* and GIV-Gai AS conf 3227*.
Screening O=C(O)c1cccc(N2C(=O)/C(=C/c3ccccc3)SC2=S)c1 returned HCMV NEC inh -5.
Screening O=C(O)c1cccc(N2C(=O)/C(=C\C=C\c3ccco3)SC2=S)c1 returned GIV-Gai inh 74*, HCMV NEC inh -11, GIV-Gai FP conf 71 and GIV-Gai AS conf 35403.
For CC(C)C(C(=O)O)N1C(=O)/C(=C/C=C/c2ccco2)SC1=S (configuration not stated) the results were GIV-Gai inh 58*, HCMV NEC inh 82*, GIV-Gai FP conf 54* and GIV-Gai AS conf 1448*.
Screening CC(C(=O)O)N1C(=O)/C(=C\c2ccco2)SC1=S (configuration not stated) returned HCMV NEC inh -62.
For Cc1ccc(/C=C2\SC(=S)N(C(C(=O)O)C(C)C)C2=O)cc1 (configuration not stated) the results were GIV-Gai inh 103.
Screening Cc1ccc(/C=C2\SC(=S)N(C(CCC(=O)O)C(=O)O)C2=O)cc1 (configuration not stated) returned HCMV NEC inh -68.

Quoted at random: 2 records from the list
Screening O=C(O)c1cccc(N2C(=O)/C(=C\C=C\c3ccco3)SC2=S)c1 returned GIV-Gai inh 74*, HCMV NEC inh -11, GIV-Gai FP conf 71 and GIV-Gai AS conf 35403.
Screening CC(C(=O)O)N1C(=O)/C(=C\c2ccco2)SC1=S (configuration not stated) returned HCMV NEC inh -62.

More compounds follow.
`Cc1ccc(NS(=O)(=O)c2cc(-c3nc(C)c(C)s3)sc2C)cc1C` gave GIV-Gai inh 104.
Screening OCC1O[C@H]([S-])[C@@H](O)C(O)[C@@H]1O.[Au+] (some centres not stated) returned GIV-Gai inh 65*, HCMV NEC inh -111, GIV-Gai FP conf 57* and GIV-Gai AS conf 6583*.
For OCC1O[C@H](O)C(Cl)C(O)C1O (some centres not stated) the results were GIV-Gai inh 105 and HCMV NEC inh -23.
CCCCCN1C(C(=O)c2ccccc2)=C(NC(=O)c2ccc(C)cc2)c2ccccc2S1(=O)=O was read as GIV-Gai inh 106 and HCMV NEC inh -7.
CCN1C(C(=O)c2ccccc2)=C(NC(=O)c2ccccc2)c2ccccc2S1(=O)=O was read as GIV-Gai inh 55*, HCMV NEC inh -4, GIV-Gai FP conf 20* and GIV-Gai AS conf 46797.
Screening CCOC(=O)c1c(NC(=O)C(C)Sc2nnc(CNC(=O)c3ccccc3F)n2C2CCCCC2)sc2c1CCC2 (configuration not stated) returned GIV-Gai inh 108.
For Cn1c(=O)c2nc3ccc(NC(=O)C(F)(F)F)cc3nc2n(C)c1=O the results were GIV-Gai inh 79*, HCMV NEC inh -74, GIV-Gai FP conf 67 and GIV-Gai AS conf 29111.
`Cc1cc2nc3c(=O)n(C)c(=O)n(C)c3nc2cc1N` gave GIV-Gai inh 95.
O=C(O)CC(Sc1nc2sc3c(c2c(=O)[nH]1)CCCC3)C(=O)O (configuration not stated) was read as GIV-Gai inh 75*, GIV-Gai FP conf 52* and GIV-Gai AS conf 16638*.
`O=c1[nH]c(SCCO)nc2sc3c(c12)CCCC3` gave HCMV NEC inh 0.
For Cn1c(=O)c(=O)n(CC(=O)N2CCN(Cc3ccccc3)CC2)c2cccnc21 the results were GIV-Gai inh 102.
Screening Oc1ccccc1C=Nc1cccnc1 returned GIV-Gai inh 83*, HCMV NEC inh -5, GIV-Gai FP conf 42* and GIV-Gai AS conf 16309*.
Screening Oc1ccc(N=Cc2ccccc2O)cc1 returned GIV-Gai inh 104 and HCMV NEC inh 7.
Screening Cc1ccc(-n2c3nc(=O)[nH]c(=O)c-3cc3ccccc32)cc1Cl returned GIV-Gai inh 105.
For COc1ccc(-n2c3nc(=O)[nH]c(=O)c-3cc3ccccc32)cc1 the results were GIV-Gai inh 71*, GIV-Gai FP conf 64 and GIV-Gai AS conf 8986*.
CCn1nnc2cc(-c3noc(-c4cnccn4)n3)ccc21 was read as GIV-Gai inh 98.
For Cc1nc2cc(-c3noc(-c4cnccn4)n3)ccc2n(C(C)C)c1=O the results were GIV-Gai inh 106, HCMV NEC inh -40, GIV-Gai FP conf 91 and GIV-Gai AS conf 35710.
`CC1CCN(S(=O)(=O)c2ccc3c(ccc(=O)n3CC(=O)N3CCc4ccccc4C3)c2)CC1` gave GIV-Gai inh 103.
Cc1cc2c3c(c(Br)cc(S(=O)(=O)O)c3n1)C(=O)c1ccccc1-2 was read as GIV-Gai inh 83*, GIV-Gai FP conf 25* and GIV-Gai AS conf 2617*.
`Cc1cc2c3c(c(N)cc(S(=O)(=O)O)c3n1)C(=O)c1ccccc1-2` gave GIV-Gai inh 126.
For CCn1c2ccccc2c2cc(C=Nc3ccc(S(N)(=O)=O)cc3)ccc21 the results were GIV-Gai inh 102 and HCMV NEC inh -1.
O=C(Nn1cnnc1)c1cccc(C(=O)Nn2cnnc2)c1 was read as GIV-Gai inh 111 and HCMV NEC inh -13.
